Experimental data taken from ChEMBL document CHEMBL5537191, “Rebamipide and Derivatives are Potent, Selective Inhibitors of Histidine Phosphatase Activity of the Suppressor of T Cell Receptor Signaling Proteins” (J Med Chem, 2024).
Calls of active or inactive are those of the source.

The chains behind the UniProt entries cited, without tags or fusion partners. Where a name states a change or a piece, a line headed by the entry shows the natural chain unless it says otherwise.
UniProt P29350: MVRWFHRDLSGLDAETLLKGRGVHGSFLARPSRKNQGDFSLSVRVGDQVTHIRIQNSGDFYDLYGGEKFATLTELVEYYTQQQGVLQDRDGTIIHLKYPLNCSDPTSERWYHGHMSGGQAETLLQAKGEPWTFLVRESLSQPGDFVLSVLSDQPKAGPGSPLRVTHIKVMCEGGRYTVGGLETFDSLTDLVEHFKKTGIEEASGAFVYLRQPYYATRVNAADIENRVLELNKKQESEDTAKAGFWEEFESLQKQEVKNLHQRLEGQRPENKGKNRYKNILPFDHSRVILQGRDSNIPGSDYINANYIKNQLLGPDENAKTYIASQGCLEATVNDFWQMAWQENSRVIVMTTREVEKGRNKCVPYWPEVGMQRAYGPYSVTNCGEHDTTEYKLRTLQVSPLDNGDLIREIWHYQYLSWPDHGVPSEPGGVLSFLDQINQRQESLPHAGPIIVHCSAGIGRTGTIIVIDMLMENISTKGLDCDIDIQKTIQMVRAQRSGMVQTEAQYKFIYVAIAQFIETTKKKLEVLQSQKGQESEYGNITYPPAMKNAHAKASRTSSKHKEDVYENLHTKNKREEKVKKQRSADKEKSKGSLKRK

Tests used:
[1] = molecular target: T1, Receptor-type tyrosine-protein phosphatase C (Homo sapiens) (UniProt P08575); test: (§1) Inhibition of recombinant human CD45 (604 to 1304 residues) phosphatase activity expressed in baculovirus infected Sf9 incubated for 20 mins by spectrophotometric analysis
T1 sequence (whole entry): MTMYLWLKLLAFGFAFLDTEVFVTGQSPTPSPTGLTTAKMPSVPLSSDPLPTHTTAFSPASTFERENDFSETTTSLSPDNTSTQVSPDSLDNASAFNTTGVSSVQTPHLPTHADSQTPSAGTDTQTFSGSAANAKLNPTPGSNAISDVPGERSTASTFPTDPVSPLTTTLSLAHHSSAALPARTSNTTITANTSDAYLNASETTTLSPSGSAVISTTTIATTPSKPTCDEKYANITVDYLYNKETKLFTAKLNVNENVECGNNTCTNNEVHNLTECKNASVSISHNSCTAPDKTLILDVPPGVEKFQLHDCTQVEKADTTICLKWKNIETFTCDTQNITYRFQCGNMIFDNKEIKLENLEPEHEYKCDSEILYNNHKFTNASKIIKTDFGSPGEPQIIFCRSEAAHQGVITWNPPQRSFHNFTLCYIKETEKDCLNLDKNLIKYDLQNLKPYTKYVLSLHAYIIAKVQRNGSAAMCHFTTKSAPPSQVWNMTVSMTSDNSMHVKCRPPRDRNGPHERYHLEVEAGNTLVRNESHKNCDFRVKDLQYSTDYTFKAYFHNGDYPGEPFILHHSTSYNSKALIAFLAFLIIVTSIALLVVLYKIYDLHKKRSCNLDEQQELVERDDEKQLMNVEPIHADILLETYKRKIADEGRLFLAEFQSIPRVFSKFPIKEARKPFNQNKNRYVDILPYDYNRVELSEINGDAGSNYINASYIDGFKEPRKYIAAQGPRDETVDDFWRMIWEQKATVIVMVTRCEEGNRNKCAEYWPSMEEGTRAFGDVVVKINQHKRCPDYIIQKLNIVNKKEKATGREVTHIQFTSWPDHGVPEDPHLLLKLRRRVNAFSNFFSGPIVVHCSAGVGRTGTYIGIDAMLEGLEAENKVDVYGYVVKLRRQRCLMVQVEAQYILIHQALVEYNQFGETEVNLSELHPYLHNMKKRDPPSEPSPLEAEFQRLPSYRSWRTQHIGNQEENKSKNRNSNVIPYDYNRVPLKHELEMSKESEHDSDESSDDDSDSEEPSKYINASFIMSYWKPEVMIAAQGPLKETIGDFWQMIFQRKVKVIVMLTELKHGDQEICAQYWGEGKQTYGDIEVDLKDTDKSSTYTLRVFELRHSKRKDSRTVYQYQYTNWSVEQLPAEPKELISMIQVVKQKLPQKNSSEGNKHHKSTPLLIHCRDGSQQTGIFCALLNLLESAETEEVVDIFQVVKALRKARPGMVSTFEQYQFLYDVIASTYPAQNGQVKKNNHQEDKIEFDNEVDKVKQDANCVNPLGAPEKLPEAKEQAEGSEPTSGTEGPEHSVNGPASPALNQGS

[2] = molecular target: Tyrosine-protein phosphatase non-receptor type 6 (Homo sapiens) (UniProt P29350); test: Inhibition of recombinant human SHP1 (243 to 541 residues) phosphatase activity expressed in Escherichia coli incubated for 20 mins by spectrophotometric analysis
[3] = molecular target: T2, Tyrosine-protein phosphatase non-receptor type 1 (Homo sapiens) (UniProt P18031); test: (§2) Inhibition of recombinant human PTP-1B (1 to 321 residues) phosphatase activity expressed in Escherichia coli incubated for 20 mins by spectrophotometric analysis
T2 sequence (whole entry): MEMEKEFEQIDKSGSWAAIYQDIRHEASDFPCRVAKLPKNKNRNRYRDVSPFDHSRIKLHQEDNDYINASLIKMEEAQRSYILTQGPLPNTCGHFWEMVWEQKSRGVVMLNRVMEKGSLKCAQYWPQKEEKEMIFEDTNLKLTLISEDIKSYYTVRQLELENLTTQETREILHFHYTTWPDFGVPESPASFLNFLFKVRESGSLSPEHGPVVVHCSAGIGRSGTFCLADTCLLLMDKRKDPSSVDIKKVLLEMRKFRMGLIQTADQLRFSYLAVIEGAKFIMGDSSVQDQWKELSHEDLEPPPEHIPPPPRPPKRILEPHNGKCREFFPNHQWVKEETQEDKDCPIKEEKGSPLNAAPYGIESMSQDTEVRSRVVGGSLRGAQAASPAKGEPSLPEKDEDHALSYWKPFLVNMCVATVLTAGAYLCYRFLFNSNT

[4] = molecular target: Receptor-type tyrosine-protein phosphatase C (Homo sapiens) (UniProt P08575); test: as §1; remark: listed apart in the source
[5] = molecular target: Tyrosine-protein phosphatase non-receptor type 1 (Homo sapiens) (UniProt P18031); test: as §2; remark: listed apart in the source

Measured: inhibition

O=C1/C(=N/Nc2ccc(S(=O)(=O)O)cc2)C(c2ccc([N+](=O)[O-])cc2)=NN1c1ccccc1
active: [1] | [2] | [3]

SODIUM ORTHOVANAD
active: [4] | [2] | [5]
